The values below come from US6610883B1, “Compounds having selective activity for retinoid X receptors, and means for modulation of processes mediated by retinoid X receptors” (Ligand Pharmaceuticals, Inc., priority 1992, dated 2003).

By UniProt entry, the sequences of proteins in these tests, tags left out.
UniProt P10276, whole entry: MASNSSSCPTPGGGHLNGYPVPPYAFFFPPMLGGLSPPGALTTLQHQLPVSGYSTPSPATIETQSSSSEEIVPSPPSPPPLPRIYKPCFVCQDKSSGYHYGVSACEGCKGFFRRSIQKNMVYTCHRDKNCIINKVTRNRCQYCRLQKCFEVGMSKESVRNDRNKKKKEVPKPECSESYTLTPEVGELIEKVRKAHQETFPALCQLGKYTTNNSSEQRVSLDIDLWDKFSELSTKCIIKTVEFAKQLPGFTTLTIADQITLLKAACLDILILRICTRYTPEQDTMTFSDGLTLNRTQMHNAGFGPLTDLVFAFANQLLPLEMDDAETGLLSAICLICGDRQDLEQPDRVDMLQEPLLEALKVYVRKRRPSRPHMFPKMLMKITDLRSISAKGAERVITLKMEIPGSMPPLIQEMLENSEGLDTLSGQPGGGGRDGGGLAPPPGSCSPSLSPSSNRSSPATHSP
UniProt P10826, whole entry: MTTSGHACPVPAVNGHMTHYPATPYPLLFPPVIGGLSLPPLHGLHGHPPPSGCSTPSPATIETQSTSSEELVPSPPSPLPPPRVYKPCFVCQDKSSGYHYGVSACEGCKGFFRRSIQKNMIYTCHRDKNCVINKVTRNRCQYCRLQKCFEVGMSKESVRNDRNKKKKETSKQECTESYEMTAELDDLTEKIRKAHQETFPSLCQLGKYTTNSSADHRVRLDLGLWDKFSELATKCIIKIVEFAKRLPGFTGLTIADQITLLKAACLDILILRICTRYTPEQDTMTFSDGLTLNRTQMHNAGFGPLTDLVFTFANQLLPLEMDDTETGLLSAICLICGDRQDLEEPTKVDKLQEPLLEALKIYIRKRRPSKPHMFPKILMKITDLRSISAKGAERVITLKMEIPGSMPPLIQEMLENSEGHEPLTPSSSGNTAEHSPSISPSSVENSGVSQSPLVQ
UniProt P13631, whole entry: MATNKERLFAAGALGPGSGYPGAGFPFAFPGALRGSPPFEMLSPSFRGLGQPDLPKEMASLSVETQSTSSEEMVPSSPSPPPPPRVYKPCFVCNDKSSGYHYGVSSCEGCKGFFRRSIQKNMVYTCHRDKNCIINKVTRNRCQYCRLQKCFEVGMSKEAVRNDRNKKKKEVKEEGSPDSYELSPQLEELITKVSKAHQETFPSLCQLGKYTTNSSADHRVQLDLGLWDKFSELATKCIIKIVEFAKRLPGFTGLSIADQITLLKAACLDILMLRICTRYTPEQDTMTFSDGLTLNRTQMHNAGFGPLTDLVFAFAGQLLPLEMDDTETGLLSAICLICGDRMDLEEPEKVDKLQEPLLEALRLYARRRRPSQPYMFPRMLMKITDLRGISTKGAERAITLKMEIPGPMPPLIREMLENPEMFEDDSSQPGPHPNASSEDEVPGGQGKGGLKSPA

One assay has as its target T1, RXRβ (Mus musculus, UniProt P28704).
T1 construct: expressed in transfected cells; host or cells: CV-1 (monkey kidney)
T1 sequence (P28704 1-520): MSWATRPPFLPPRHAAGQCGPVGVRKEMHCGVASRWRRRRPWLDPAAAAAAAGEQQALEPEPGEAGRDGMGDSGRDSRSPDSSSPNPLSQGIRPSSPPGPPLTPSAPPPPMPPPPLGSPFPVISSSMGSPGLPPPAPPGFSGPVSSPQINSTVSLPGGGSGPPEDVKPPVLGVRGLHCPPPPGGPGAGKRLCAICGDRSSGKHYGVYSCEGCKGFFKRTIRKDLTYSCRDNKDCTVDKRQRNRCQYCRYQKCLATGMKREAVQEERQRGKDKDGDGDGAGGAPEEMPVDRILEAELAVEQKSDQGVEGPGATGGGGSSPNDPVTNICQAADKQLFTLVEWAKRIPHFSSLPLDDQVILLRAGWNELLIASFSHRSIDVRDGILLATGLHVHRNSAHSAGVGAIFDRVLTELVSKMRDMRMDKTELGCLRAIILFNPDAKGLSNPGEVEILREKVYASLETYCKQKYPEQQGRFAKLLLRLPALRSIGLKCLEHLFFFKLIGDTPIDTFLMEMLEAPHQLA
Description: Co-transfection (cis-trans) assay in CV-1 cells, RXRβ. It is filed as cell-based. The conditions noted are these: CV-1, read-out: Efficacy.

In a further assay the target is T2, RXRγ (Mus musculus, UniProt P28705).
T2 construct: expressed in transfected cells; host or cells: CV-1 (monkey kidney)
T2 sequence (P28705 1-463): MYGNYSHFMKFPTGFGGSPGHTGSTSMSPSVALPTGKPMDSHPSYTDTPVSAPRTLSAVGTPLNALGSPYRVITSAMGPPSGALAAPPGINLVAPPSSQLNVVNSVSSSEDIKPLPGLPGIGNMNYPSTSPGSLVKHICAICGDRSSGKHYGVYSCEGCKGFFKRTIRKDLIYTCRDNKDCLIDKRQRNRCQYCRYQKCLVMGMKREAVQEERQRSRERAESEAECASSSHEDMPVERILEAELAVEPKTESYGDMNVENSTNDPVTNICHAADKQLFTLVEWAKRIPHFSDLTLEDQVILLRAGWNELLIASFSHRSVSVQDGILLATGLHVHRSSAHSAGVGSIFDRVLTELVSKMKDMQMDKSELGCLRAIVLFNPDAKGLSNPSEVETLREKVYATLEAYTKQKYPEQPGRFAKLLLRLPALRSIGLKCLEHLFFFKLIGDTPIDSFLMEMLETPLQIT
Description: Co-transfection (cis-trans) assay in CV-1 cells, RXRγ. It is filed as cell-based. The conditions noted are these: maximal response relative to all-trans-retinoic acid at 10^−5 M.

A further assay addresses RARα (Homo sapiens, UniProt P10276). Description: Co-transfection (cis-trans) assay in CV-1 cells, RARα. Type of assay: cell-based. Set-up: expressed in transfected cells; host or cells: CV-1 (monkey kidney). The conditions noted are these: maximal response relative to all-trans-retinoic acid at 10^−5 M.
The next assay addresses RARβ (Homo sapiens, UniProt P10826). Description: Co-transfection (cis-trans) assay in CV-1 cells, RARβ. It is filed as cell-based. Set-up: expressed in transfected cells; host or cells: CV-1 (monkey kidney). The conditions noted are these: maximal response relative to all-trans-retinoic acid at 10^−5 M.
A further assay addresses RARγ (Homo sapiens, UniProt P13631). Description: Co-transfection (cis-trans) assay in CV-1 cells, RARγ. It is filed as cell-based. Set-up: expressed in transfected cells; host or cells: CV-1 (monkey kidney). The conditions noted are these: maximal response relative to all-trans-retinoic acid at 10^−5 M.
The test system of assay [1] is ME180, a squamous cell carcinoma. The experiment in a line: Cell growth of ME180. Type of assay: cell-based, human. The conditions noted are these: ME180, cell number.
The subject of assay [2] is RPMI18226, a multiple myeloma. The experiment in a line: Cell growth of RPMI18226. Type of assay: cell-based, human. The conditions noted are these: RPMI18226, cell number and growth in semi-solid medium.

Consider `C=C(c1ccc(C(=O)O)cc1)c1cc2c(cc1C)C(C)(C)CCC2(C)C` [3-methyl-TTNEB, 4-[1-(3,5,5,8,8-pentamethyl-5,6,7,8-tetrahydro-2-naphthyl)ethenyl]benzoic acid], for which, on RXRβ, the Emax at 10 µM turned out to be 102%.

Consider `CC1=C(/C=C/C(C)=C\C=C\C(C)=C\C(=O)O)C(C)(C)CCC1` [9-cis-retinoic acid, reference compound], for which the Efficacy at RXRγ was 140%; on RARα it was 100%; on RARβ it was 82%; at RARγ it was 120%.

Regarding “Interferonα2b: Interferon, compound which affects cellular proliferation”, the “Effect on cell growth” value in assay [1] and in assay [2] was “inhibit cell growth in a concentration-dependent manner” throughout.
